According to US20080292586A1 (priority 2005, published 2008):

Tested on: MDBK cells

Interferon alpha 2a
T50: >1000 IU
